biological target: GyrB ATPase activity (E. coli GyrA, E. coli GyrB) (Escherichia coli, UniProt P0AES6); assay: GyrB ATPase inhibition activity assay (ammonium molybdate/malachite green phosphate detection); assay type: biochemical; details: figure quoted may be an average of two or more results
Description: Compounds may be tested for inhibition of GyrB ATPase activity using an ammonium molybdate/malachite green-based phosphate detection assay (Lanzetta, P. A., L. J. Alvarez, P. S. Reinach, and O. A. Candia, 1979, 100: 95-97). Assays can be performed in multiwell plates in 100 μl reactions containing: 50 mM HEPES buffer pH 7.5, 75 mM ammonium acetate, 5.5 mM magnesium chloride, 0.5 mM ethylenediaminetetraacetic acid, 5% glycerol, 1 mM 1,4-Dithio-DL-threitol, 200 nM bovine serum albumin, 5 μg/ml sheared salmon sperm DNA, 2.5 nM E. coli GyrA, 2.5 nM E. coli GyrB, 250 μM ATP, and compound in dimethylsulfoxide. Reactions can be quenched with 150 μl of ammonium molybdate/malachite green detection reagent containing 1.2 mM malachite green hydrochloride, 8.5 mM ammonium molybdate tetrahydrate, and 1 M hydrochloric acid. Plates can be read in an absorbance plate reader at 650 nm and percent inhibition values may be calculated using dimethylsulfoxide (2%)-containing reactions as 0% inhibition and novobiocin-containing (2 μM) reactions as 100% inhibition controls. Compound potency can be based on IC50 measurements determined from reactions performed in the presence of 10 different compound concentrations.
Compound potency may be based on IC50 measurements determined from reactions performed in the presence of 10 different compound concentrations. Compounds of the Examples could be expected to have IC50 values of <200 μg/ml in one or both assays described herein above. For Example the following results were obtained in a GyrB ATPase inhibition activity assay substantially similar to the above wherein the figure quoted may be an average of two or more results

“2-((3S,6s,11R)-11-{[(3,4-Dichloro-5-methyl-1H-pyrrol-2-yl)carbonyl]amino}-3-ethoxy-1,5-dioxa-8-azaspiro[5.5]undec-8-yl)-1,3-thiazole-5-carboxylic acid and 2-((3R,6r,11R)-11-{[(3,4-Dichloro-5-methyl-1H-pyrrol-2-yl)carbonyl]amino}-3-ethoxy-1,5-dioxa-8-azaspiro[5.5]undec-8-yl)-1,3-thiazole-5-carboxylic acid (1:1) [Example 51]” and “Methyl 2-[(3R,6r,11R)-11-{[(3,4-dichloro-5-methyl-1H-pyrrol-2-yl)carbonyl]amino}-3-(hydroxymethyl)-1,5-dioxa-8-azaspiro[5.5]undec-8-yl]-1,3-thiazole-5-carboxylate and methyl 2-[(3S,6s,11R)-11-{[(3,4-dichloro-5-methyl-1H-pyrrol-2-yl)carbonyl]amino}-3-(hydroxymethyl)-1,5-dioxa-8-azaspiro[5.5]undec-8-yl]-1,3-thiazole-5-carboxylate (1:1) [Example 61]” cannot be ordered by IC50: under 122 nM for the first, under 9.77 nM for the second.

“2-[(3R,6r,11R)-11-{[(3,4-Dichloro-5-methyl-1H-pyrrol-2-yl)carbonyl]amino}-3-(hydroxymethyl)-1,5-dioxa-8-azaspiro[5.5]undec-8-yl]-1,3-thiazole-5-carboxylic acid and 2-[(3S,6s,11R)-11-{[(3,4-dichloro-5-methyl-1H-pyrrol-2-yl)carbonyl]amino}-3-(hydroxymethyl)-1,5-dioxa-8-azaspiro[5.5]undec-8-yl]-1,3-thiazole-5-carboxylic acid (1:1) [Example 54]” showed an IC50 of under 9.77 nM.

— US20100286181A1, “PYRROLE DERIVATIVES WITH ANTIBACTERIAL ACTIVITY” (ASTRAZENECA AB, priority 2006, published 2010)
